Literature values, collected in paper PMC5485989, “Role of Free Radicals and Biotransformation in Trichloronitrobenzene-Induced Nephrotoxicity In Vitro” (International Journal of Molecular Sciences, 2017).

Tested on: Fisher 344 rats
Settings: cited from earlier work

2-chloronitrobenzene
Renal tumours and nephropathy (feeding to Fisher 344 rats): increased the number of renal cell adenomas in females and renal carcinomas in males and exacerbated age-related chronic progressive nephropathy in males
Death of male rats (feeding, 2000 ppm level): 47 of 50
